Measurements from patent US20050130961A1, “Muscarinic M1 receptor agonists for pain management” (priority 2003, published 2005).

Amino acid sequences for entries named in this document (tags omitted). A change or cut given only in a name is not applied to a line headed by its entry.
UniProt P08172, whole entry: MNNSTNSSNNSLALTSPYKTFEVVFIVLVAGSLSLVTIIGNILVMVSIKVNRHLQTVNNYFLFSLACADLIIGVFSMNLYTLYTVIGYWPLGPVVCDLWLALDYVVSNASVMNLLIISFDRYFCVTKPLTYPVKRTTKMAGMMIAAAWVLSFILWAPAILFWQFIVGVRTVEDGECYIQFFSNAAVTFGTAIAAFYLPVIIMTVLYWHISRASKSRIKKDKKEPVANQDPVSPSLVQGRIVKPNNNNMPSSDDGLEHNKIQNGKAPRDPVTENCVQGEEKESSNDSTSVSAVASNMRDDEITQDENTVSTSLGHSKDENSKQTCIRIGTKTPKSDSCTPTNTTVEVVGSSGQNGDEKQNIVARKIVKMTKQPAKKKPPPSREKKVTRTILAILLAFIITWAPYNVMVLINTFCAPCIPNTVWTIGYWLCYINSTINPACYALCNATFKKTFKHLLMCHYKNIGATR
UniProt P11229: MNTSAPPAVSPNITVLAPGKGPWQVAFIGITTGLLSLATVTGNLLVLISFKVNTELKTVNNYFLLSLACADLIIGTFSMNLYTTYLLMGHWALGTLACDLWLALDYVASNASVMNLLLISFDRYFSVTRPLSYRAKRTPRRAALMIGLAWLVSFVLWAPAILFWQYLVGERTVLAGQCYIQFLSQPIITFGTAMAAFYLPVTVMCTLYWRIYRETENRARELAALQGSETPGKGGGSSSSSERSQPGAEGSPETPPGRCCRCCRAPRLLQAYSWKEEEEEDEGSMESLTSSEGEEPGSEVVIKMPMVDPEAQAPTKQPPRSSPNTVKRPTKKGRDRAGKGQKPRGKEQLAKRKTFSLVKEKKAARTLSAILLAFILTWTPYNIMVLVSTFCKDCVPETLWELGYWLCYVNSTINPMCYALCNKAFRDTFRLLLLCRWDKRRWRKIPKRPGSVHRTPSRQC

Columns and labels:
M(2) muscarinic receptor = biological target: T1, M(2) muscarinic receptor (Homo sapiens, UniProt P08172); test: R-SAT functional receptor assay, M(2); type: cell-based; conditions: read-out: M2 pEC50 (converted)
T1 construct: expressed in transfected cells
Text: (§1) The functional receptor assay, Receptor Selection and Amplification Technology (R-SAT), essentially as disclosed in U.S. Pat. Nos. 5,707,798, 5,912,132, and 5,955,281, which are all hereby incorporated by reference in their entirety, was used to investigate the pharmacological properties of known and novel muscarinic agonists.

M(1) muscarinic receptor = biological target: T2, M(1) muscarinic receptor (Homo sapiens, UniProt P11229); test: R-SAT functional receptor assay, M(1); type: cell-based
T2 construct: expressed in transfected cells
Text: as §1

## CCCCCCOc1nsnc1C1=CCCN(C)C1 [Xanomeline]
M(2) muscarinic receptor
  EC50: 316 nM
M(1) muscarinic receptor
  agonist character at M(1) receptor, in words: potent and efficacious full agonists
